Experimental data reported in patent US10208083B2 (priority 2015, dated 2019).

Legend:
[1] = system: murine P388 lymphocytic leukemia; test: Antileukemic activity against P388 in vivo; design: species or system mice; also: test concentration or dose not given here
[2] = system: SCOV-3 human ovarian cancer; test: Antitumor activity against SCOV-3 xenograft in vivo; as to OS % on Day-70: test concentration or dose not given here; as to PFS % on Day-70: test concentration or dose not given here; conditions: BALB/c scid mice, s.c. SCOV-3, i.p. LD10/4 on days 1, 5, 9
C57Bl/6 mice = test: In vivo acute toxicity (lethality); conditions: single i.p. injection, C57Bl/6 female mice, observed 30 days, estimated graphically

## O=C(O)CCOc1ccc(N(CCCl)CCCl)cc1
[1]; MST treated vs saline controls, single i.p. dose at LD10 on Day 1, p < 0.001
  T/C %: 211* %
[1]; median survival time, BALB/c scid mice, i.p. P388, single i.p. dose at LD10 on Day 1
  MST ± SD: 19 days
[1]; mice alive for 90 days after tumor inoculation, single i.p. dose at LD10 on Day 1
  Cures: 0/6
[2]; percentage of survivors
  OS % on Day-70: 40%
[2]; tumor inhibition
  TI % at Day-35: 17%
[2]; tumor progression free survivors
  PFS % on Day-70: 0%
C57Bl/6 mice
  LD10: 15 mg/kg

Marks after values point to notes of the source that are not given here.
